From patent publication US11046713B2, “Androgen receptor modulating compounds” (ORION CORPORATION, priority 2009, dated 2021)

tested on: VCaP prostate cancer cell line; assay: Inhibition of mibolerone-induced VCaP cell proliferation (WST-1); format: cell-based; details: Homo sapiens, mibolerone-induced (usually 0.1 nM), 4-5 days
Method: The IC50 value of the test compound for inhibition of mibolerone-induced VCaP cell proliferation was measured.
Cell Proliferation Assays
The ability of test compounds to inhibit prostate cancer cell growth was studied by measuring inhibition of cell proliferation using androgen-sensitive VCaP prostate cancer cell line. […] Cell proliferation was measured using WST-1 Cell Proliferation Assay (Roche).

Row | SMILES | IC50
1 | CC(=O)c1cc(C(=O)N[C@@H](C)Cn2ccc(-c3ccc(C#N)c(Cl)c3)n2)[nH]n1 [Example 34, (S)-3-acetyl-N-(1-(3-(3-chloro-4-cyanophenyl)-1H-pyrazol-1-yl)propan-2-yl)-1H-pyrazole-5-carboxamide] | 600 nM
2 | CC(=O)c1cc(C(=O)NC[C@H](C)n2ccc(-c3cc(F)c(C#N)c(F)c3)n2)[nH]n1 [Example 219, (S)-3-acetyl-N-(2-(3-(4-cyano-3,5-difluorophenyl)-1H-pyrazol-1-yl)propyl)-1H-pyrazole-5-carboxamide] | 1400 nM
3 | CC(O)c1cc(C(=O)N[C@@H](C)Cn2ccc(-c3ccc(C#N)c(Cl)c3)n2)[nH]n1 (stereo partly drawn) [Example 56, N—((S)-1-(3-(3-chloro-4-cyanophenyl)-1H-pyrazol-1-yl)-propan-2-yl)-3-(1-hydroxyethyl)-1H-pyrazole-5-carboxamide] | 400 nM
